Experimental findings from patent US20230322735A1, “AZETIDINYL TRYPTAMINES AND METHODS OF TREATING PSYCHIATRIC DISORDERS” (priority 2020, published 2023) are described below.

By UniProt entry, the sequences of proteins in these tests, tags left out.
UniProt P08908, whole entry: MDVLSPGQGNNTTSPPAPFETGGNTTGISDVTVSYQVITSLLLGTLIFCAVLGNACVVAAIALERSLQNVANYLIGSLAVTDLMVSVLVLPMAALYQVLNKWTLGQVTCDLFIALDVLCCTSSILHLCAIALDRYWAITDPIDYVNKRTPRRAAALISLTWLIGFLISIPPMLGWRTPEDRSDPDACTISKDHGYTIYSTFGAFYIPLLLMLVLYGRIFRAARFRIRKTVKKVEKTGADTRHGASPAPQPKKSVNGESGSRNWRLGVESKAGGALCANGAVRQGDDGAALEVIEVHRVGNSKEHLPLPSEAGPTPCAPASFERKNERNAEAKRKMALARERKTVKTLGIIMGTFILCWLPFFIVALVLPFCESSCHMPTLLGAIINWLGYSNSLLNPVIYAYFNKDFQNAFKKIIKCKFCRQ

Broadly, the EC50 is the concentration giving half of the maximal effect.

The test deals with T1, 5-HT1A receptor (Homo sapiens, UniProt P08908).
T1 construct: host or cells: CHO cells
Put plainly: FLIPR Ca2+ flux agonist assay at 5-HT1A (CHO cells). It is filed as cell-based. A general note: Calcium flux is commonly read through the fluorescence of an indicator in the cells.

On to `COc1ccc2[nH]cc(CCN(C)C)c2c1` [Compound 5-MeO-DMT, reference compound], for which the midpoint of the response, the EC50, lay at 280 nM.
